Biological target: Adenosine receptor A3 (Homo sapiens) (UniProt P0DMS8)
Assay: Positive allosteric modulation of human A3 adenosine receptor transfected in HEK293 cell membranes assessed as potentiation of 5-(2-chloro-6-((3-iodobenzyl)amino)-9H-purin-9-yl)-3,4-dihydroxy-N-methyltetrahydrofuran-2-carboxamide induced [35S]GTP-gammaS binding by measuring fold increase in maximal efficacy of agonist at 0.1 uM pretreated for 1 hr followed by agonist addition and measured after 2 hrs by liquid scintillation counting method relative to control
Details: Membrane, filed as positive allosteric modulator, time 3.0 hrs

Amino acid sequences for entries named in this document (tags omitted).
UniProt P0DMS8, whole entry: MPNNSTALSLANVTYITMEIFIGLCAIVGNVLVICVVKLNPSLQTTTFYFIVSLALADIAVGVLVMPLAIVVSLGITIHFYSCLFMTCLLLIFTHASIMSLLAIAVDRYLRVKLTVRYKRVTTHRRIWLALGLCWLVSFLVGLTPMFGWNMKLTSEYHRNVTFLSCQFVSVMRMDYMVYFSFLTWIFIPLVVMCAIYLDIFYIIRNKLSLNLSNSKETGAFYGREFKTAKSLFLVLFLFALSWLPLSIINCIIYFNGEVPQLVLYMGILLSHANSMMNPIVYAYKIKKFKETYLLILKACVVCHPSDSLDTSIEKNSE

- fold change (FC): 2
SMILES: Clc1ccc(Nc2nc3ccccc3c3nc(C4CCCCC4)[nH]c23)cc1Cl

From ChEMBL document CHEMBL5523738, “Lipid Trolling to Optimize A3 Adenosine Receptor-Positive Allosteric Modulators (PAMs)” (J Med Chem, 2024)
